By UniProt entry, the sequences of proteins in these tests, tags left out. Residues count along the entry.
UniProt Q9UM73, 19-1620 L1196M/G1202R limits assumed: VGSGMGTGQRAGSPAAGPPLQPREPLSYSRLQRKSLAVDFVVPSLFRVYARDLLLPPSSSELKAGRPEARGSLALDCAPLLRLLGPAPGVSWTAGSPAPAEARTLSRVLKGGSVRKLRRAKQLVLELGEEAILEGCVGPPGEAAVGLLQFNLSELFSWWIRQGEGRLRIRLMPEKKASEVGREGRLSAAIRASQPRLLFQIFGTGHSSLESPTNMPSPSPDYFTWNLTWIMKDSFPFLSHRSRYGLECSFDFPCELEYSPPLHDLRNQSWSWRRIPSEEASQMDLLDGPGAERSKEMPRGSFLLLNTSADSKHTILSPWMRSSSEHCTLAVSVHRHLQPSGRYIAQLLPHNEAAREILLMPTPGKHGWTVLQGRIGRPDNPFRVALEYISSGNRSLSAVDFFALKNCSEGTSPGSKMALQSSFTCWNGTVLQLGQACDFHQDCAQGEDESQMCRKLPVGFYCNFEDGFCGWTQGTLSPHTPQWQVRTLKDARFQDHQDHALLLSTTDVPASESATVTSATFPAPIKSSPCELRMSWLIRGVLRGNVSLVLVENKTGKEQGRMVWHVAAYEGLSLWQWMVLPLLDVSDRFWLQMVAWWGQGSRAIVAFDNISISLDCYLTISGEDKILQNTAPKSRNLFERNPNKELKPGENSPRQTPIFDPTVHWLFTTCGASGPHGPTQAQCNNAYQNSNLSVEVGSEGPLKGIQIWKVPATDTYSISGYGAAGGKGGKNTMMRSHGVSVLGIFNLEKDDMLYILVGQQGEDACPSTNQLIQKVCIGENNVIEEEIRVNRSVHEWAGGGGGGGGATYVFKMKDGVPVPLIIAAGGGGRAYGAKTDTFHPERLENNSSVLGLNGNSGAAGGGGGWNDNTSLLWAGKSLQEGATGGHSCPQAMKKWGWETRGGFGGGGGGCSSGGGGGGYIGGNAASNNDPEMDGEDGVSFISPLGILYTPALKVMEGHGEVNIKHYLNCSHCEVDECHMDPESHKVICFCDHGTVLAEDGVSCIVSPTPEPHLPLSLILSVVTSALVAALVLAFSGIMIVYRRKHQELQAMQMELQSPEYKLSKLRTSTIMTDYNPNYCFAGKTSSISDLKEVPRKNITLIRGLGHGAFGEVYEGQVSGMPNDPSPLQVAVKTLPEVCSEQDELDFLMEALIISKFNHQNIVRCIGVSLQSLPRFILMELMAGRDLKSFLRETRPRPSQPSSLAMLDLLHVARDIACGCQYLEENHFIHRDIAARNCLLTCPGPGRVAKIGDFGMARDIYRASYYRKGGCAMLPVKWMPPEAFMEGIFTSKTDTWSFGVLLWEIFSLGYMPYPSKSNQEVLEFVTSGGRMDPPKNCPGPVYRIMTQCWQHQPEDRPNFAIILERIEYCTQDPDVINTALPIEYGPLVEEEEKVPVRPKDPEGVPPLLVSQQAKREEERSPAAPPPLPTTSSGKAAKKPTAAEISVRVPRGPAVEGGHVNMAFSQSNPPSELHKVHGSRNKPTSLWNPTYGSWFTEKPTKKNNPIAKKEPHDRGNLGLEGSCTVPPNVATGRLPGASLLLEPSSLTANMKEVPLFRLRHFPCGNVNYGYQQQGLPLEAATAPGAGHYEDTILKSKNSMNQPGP

In patent EP4831180A1, “NOVEL KINASE INHIBITOR” (dated 2026):

These compounds were tested against His-ALK^G1202R/L1196M (Homo sapiens, UniProt Q9UM73, G1202R/L1196M) (assay: ALK G1202R/L1196M compound mutant kinase inhibitory activity assay (HTRF)). Details: read-out: ALK^G1202R/L1196M Enzyme, IC50, ATP 4 µM, enzyme 0.5 nM, 1 hour at 23 °C.
In the case of `CCn1nc(C#Cc2ccc(N)nn2)c2c1-c1cnc(N)c(c1)O[C@H](C)c1cc(F)ccc1-c1nn(C)cc1C2`, the IC50 is reported as less than 5 nM. `C#Cc1nn(CC)c2c1Cc1ccc(OC)nc1-c1ccc(F)cc1[C@@H](C)Oc1cc-2cnc1N` showed an IC50 of less than 5 nM. `CCn1nc(C#Cc2ccc(C(C)(C)O)cc2)c2c1-c1cnc(N)c(c1)O[C@H](C)c1cc(F)ccc1-c1nn(C)cc1C2` showed an IC50 of less than 5 nM. In the case of `CCn1nc(C#CC(C)(C)S(C)(=O)=O)c2c1-c1cnc(N)c(c1)O[C@H](C)c1cc(F)ccc1-c1nn(C)cc1C2`, the IC50 is reported as less than 5 nM. `C=CCc1nn(CC)c2c1Cc1cn(C)nc1-c1ccc(F)cc1[C@@H](C)Oc1cc-2cnc1N` showed an IC50 of less than 5 nM. For `CCn1nc(C#CCN2CCCCC2)c2c1-c1cnc(N)c(c1)O[C@H](C)c1cc(F)ccc1-c1nn(C)cc1C2`, the IC50 was less than 5 nM. `C#Cc1nn(CC)c2c1Cc1cn(C(F)F)nc1-c1ccc(F)cc1[C@@H](C)Oc1cc-2cnc1N` was tested, and the IC50 was less than 5 nM. Work on `C#Cc1nn(CC)c2c1Cc1nn(C)nc1-c1ccc(F)cc1[C@@H](C)Oc1cc-2cnc1N` yielded an IC50 of less than 5 nM. Compound `CCn1nc(C#CC2CNC2)c2c1-c1cnc(N)c(c1)O[C@H](C)c1cc(F)ccc1-c1nn(C)cc1C2` has an IC50 of less than 5 nM. `C#Cc1nn(CC)c2c1Cn1ccnc1-c1ccc(F)cc1[C@@H](C)Oc1cc-2cnc1N` gave an IC50 of less than 5 nM. `CCn1nc(C#CC2(O)CCCCC2)c2c1-c1cnc(N)c(c1)O[C@H](C)c1cc(F)ccc1-c1nn(C)cc1C2` showed an IC50 of less than 5 nM. Work on `CCn1nc(C#Cc2cnn(C3CC3)c2)c2c1-c1cnc(N)c(c1)O[C@H](C)c1cc(F)ccc1-c1nn(C)cc1C2` yielded an IC50 of less than 5 nM. For `CCn1nc(C#Cc2nnc(C)s2)c2c1-c1cnc(N)c(c1)O[C@H](C)c1cc(F)ccc1-c1nn(C)cc1C2`, the IC50 was less than 5 nM. For `CCn1nc(C#Cc2cn(C)cn2)c2c1-c1cnc(N)c(c1)O[C@H](C)c1cc(F)ccc1-c1sc(C)nc1C2`, the IC50 was less than 5 nM. `CCn1nc(C#Cc2cn(C(F)F)cn2)c2c1-c1cnc(N)c(c1)O[C@H](C)c1cc(F)ccc1-c1nn(C)cc1C2` was tested, and the IC50 was less than 5 nM. `CCn1nc(C#Cc2cccc(C(C)(C)O)n2)c2c1-c1cnc(N)c(c1)O[C@H](C)c1cc(F)ccc1-c1nn(C)cc1C2` was tested, and the IC50 was less than 5 nM. `CCn1nc(C#Cc2ccncn2)c2c1-c1cnc(N)c(c1)O[C@H](C)c1cc(F)ccc1-c1nn(C)cc1C2` showed an IC50 of less than 5 nM. For `CCn1nc(C#Cc2cn(C)c(C)n2)c2c1-c1cnc(N)c(c1)O[C@H](C)c1cc(F)ccc1-c1nn(C)cc1C2`, the IC50 was less than 5 nM. `CCn1nc(C#Cc2cn(CC(F)(F)F)cn2)c2c1-c1cnc(N)c(c1)O[C@H](C)c1cc(F)ccc1-c1nn(C)cc1C2` gave an IC50 of less than 5 nM. With `C#Cc1nn(CC)c2c1Cc1cncnc1-c1ccc(F)cc1[C@@H](C)Oc1cc-2cnc1N` the IC50 was less than 5 nM. With `CCn1nc(/C=C/C2CC2)c2c1-c1cnc(N)c(c1)O[C@H](C)c1cc(F)ccc1-c1nn(C)cc1C2` the IC50 was less than 5 nM. Compound `CCn1nc(C#CC2CC2)c2c1-c1cnc(N)c(c1)O[C@H](C)c1cc(F)ccc1-c1nn(C)cc1C2` has an IC50 of less than 5 nM. For `CCn1nc(C#Cc2cnc3cccnn23)c2c1-c1cnc(N)c(c1)O[C@H](C)c1cc(F)ccc1-c1nn(C)cc1C2`, the IC50 was less than 5 nM. Compound `CCn1nc(C#CC2CC(F)(F)C2)c2c1-c1cnc(N)c(c1)O[C@H](C)c1cc(F)ccc1-c1nn(C)cc1C2` has an IC50 of less than 5 nM. `CCn1nc(C#Cc2cnn(CC(C)(C)O)c2)c2c1-c1cnc(N)c(c1)O[C@H](C)c1cc(F)ccc1-c1nn(C)cc1C2` gave an IC50 of less than 5 nM. In the case of `CCn1nc(C#Cc2cnc(N)s2)c2c1-c1cnc(N)c(c1)O[C@H](C)c1cc(F)ccc1-c1nn(C)cc1C2`, the IC50 is reported as less than 5 nM. Compound `CCn1nc(C#Cc2cnn(C)n2)c2c1-c1cnc(N)c(c1)O[C@H](C)c1cc(F)ccc1-c1nn(C)cc1C2` has an IC50 of less than 5 nM. Compound “(19R)-3-ethyl-16-fluoro-10,19-dimethyl-5-((1-(oxetan-3-yl)pyrazol-4-yl)et hynyl)-20-oxa-3,4,10,11,23-pentaazapentacyclo[19.3.1.0^8,12.0^13,18.0^2,6]pentacosa-1(25),2(6),4,8 (9),11,13(18),14,16,21(22),23-decaen-22-amine” has an IC50 of less than 5 nM. In the case of `CCn1nc(C#CC2CNC2)c2c1-c1cnc(N)c(c1)O[C@H](C)c1cc(F)ccc1-c1nn(C)nc1C2`, the IC50 is reported as less than 5 nM.
